TDP1 cell CPT: DT40-hTDP1 cell growth loss with CPT | chicken DT40 Tdp1-/-;hTDP1 cells + 20 nM CPT, ATP luminescence, 48 h | Potency, µM (top dose mostly 46.2 µM), actives largely listed as inhibitors | 420,000 compounds, 12% hits; also: nearly all actives have a fitted effect of over 55% in size
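Chicken DT40 Tdp1-/- cells complemented with human TDP1, 400 cells/well, exposed to compounds plus 20 nM camptothecin for at least 48 h at 37 C; viability read as ATP content by CellTiter-Glo luminescence.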
TDP1 inh: TDP1 (human) enzyme inhibition; recombinant TDP1, AlphaScreen DNA substrate cleavage; Potency, µM (doses to about 130 µM), actives largely listed as inhibitors; 350,000 compounds, 0.28% hits; AID 485290; also: nearly all actives have a fitted effect of over 40% in size
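Tdp1 1 nM final; 15 min RT w/ cpd; substrate 15 nM, 5 min; beads 10 ug/ml, 10 min; AlphaScreen read. Neg ctrl: no enzyme.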
uPA generation: blocks generation of uPA at the cell surface | Potency, µM (titrated, usually from 38.3 µM), most hits filed as inhibitors | AID 540303 | cell surface uPA generation assay, qHTS | 330,000 compounds, 0.31% hits; active = well fitted inhibition curve with a large enough effect; inconclusive = small, poorly fitted or top-dose-only effect; inactive = no such curve, though single readings can be large or run the other way; tested in mouse RAW 264.7 cells; also: nearly all actives have a fitted effect of over 55% in size
miR-21 reporter: raises the signal of a miR-21 reporter; Potency, µM (doses to about 38.3 µM); HeLa miR-21 FLuc reporter, luciferase, 48 h; AID 2288; 340,000 tested, under 10 active; active = well fitted rising curve with a large enough effect; inconclusive = small, poorly fitted or top-dose-only effect; inactive = no such curve, though single readings can be large or run the other way;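 further: miR-21 action dims this reporter so a rising signal means less miR-21 action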
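Using DMEM plus 10% FBS, HeLa miR-21-FLuc cells are incubated with test compounds (final up to about 40uM) for 48 hours; firefly luciferase signal is then imaged following reagent-mediated lysis.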
DT40 TDP1 no CPT: qHTS for Inhibitors of human tyrosyl-DNA phosphodiesterase 1 (TDP1): qHTS in cells in absence of CPT | AID 686978, 2013 | Potency, µM (doses to about 46.2 µM), actives largely listed as inhibitors | DT40 Tdp1-/- hTDP1 cells, no CPT, ATP luminescence, 48 h | 420,000 compounds, 15% hits; also: nearly all actives have a fitted effect of over 55% in size
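Compound effects on proliferation are scored in DT40 Tdp1-/-;hTDP1 cells in the absence of CPT. ATP levels (CellTiter-Glo luminescence) are recorded after a ≥48 hr, 37 °C incubation.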
Hits are given with their value; n = inactive; u = inconclusive; x = no result given; [ ] = another dose, or the depositor's remark. This is a sample that favours compounds with a hit; in the whole collection about 16% have one here. Unless noted, calls follow the shape of the dose curve; as a rule, active = well fitted curve in the direction sought with a large enough effect; inconclusive = small, poorly fitted or top-dose-only effect, or another doubt; inactive = no such curve, though single readings can be large; an effect the other way counts as inactive or inconclusive.

SMILES	TDP1 cell CPT	TDP1 inh	uPA generation	miR-21 reporter	DT40 TDP1 no CPT
CC(C)CC(N)c1csc(NC(=O)c2cc(C(C)(C)C)nn2Cc2ccccc2)n1 (configuration not stated)	7.31µM	x	x	x	8.2µM
CCOc1ccc(N2CC(C(=O)NCCc3ccc(S(N)(=O)=O)cc3)CC2=O)cc1 (configuration not stated)	n	n	n	n	n
COc1ccccc1NC(=O)Nc1nc(C(N)Cc2ccccc2)cs1 (configuration not stated)	23.1µM	x	x	x	18.4µM
Cc1cc(C(=O)COC(=O)C2=NNC(=O)CC2)c(C)n1CCc1ccccc1	n	n	n	n	u
O=C(Nc1nc2n(n1)C(c1ccc(F)cc1)C=C(c1ccccc1)N2)c1cccc([N+](=O)[O-])c1 (configuration not stated)	18.4µM	n	x	n	10.3µM
CC(=O)Nc1nc2n(n1)C(c1ccc(F)cc1)C=C(c1ccccc1)N2 (configuration not stated)	u	n	n	n	17.8µM
O=C(Nc1nc2n(n1)C(c1ccc(F)cc1)C=C(c1ccc(Cl)cc1)N2)c1ccco1 (configuration not stated)	u	n	x	n	u
COC(=O)c1cccc(Oc2nc3c(c(=O)n(C)c(=O)n3C)n2Cc2ccc(C)cc2)c1	n	x	n	x	u
CCN(CC)CCCCNc1ncc2cc(-c3cc(OC)cc(OC)c3)c(NC(=O)NC(C)(C)C)nc2n1	u	n	7.08µM	n	u
CS(=O)(=O)N1CCCCC1c1cc(C(=O)Nc2ccc3c(c2)OCO3)no1 (configuration not stated)	n	x	x	x	n
Cn1nc(C(C)(C)C)cc1C(=O)N1CCCCC1c1cc(C(=O)NCc2cccnc2)no1 (configuration not stated)	23.1µM	x	x	x	20.6µM
O=C(Nc1ccc2c(c1)OCO2)c1cc(C2CCCCN2C(=O)c2ccccc2)on1 (configuration not stated)	13µM	x	x	x	9.2µM
Cn1nc(C(C)(C)C)cc1C(=O)N1CCCCC1c1cc(C(=O)Nc2ccccc2Cl)no1 (configuration not stated)	20.6µM	x	x	x	20.6µM
Cn1nc(C(C)(C)C)cc1C(=O)N1CCCCC1c1cc(C(=O)Nc2ccccc2)no1 (configuration not stated)	20.6µM	x	x	x	23.1µM
O=C(NCc1cccnc1)c1cc(C2CCCCN2C(=O)c2ccc(Cl)cc2)on1 (configuration not stated)	n	x	x	x	n
O=C(NNc1cccc(Cl)c1)c1cccnc1Cl	n	n	n	n	n
CCOC(=O)c1ccc(-c2ccc(/C=C(\C#N)C(=O)Nc3ccc(C)cc3OC)o2)cc1	n	n[12.3 µM]	x	n	n
O=C(COC(=O)c1cc(S(=O)(=O)N2CCOCC2)c(Cl)cc1Cl)NCc1ccco1	n	n	n	x	n
CC(C)=CCC/C(C)=C/CO/N=C1/C[C@@H](O)[C@@H](O)[C@@H]2[C@@H]3C(=O)N(c4cccc(Oc5ccccc5)c4)C(=O)[C@H]3CC[C@@H]12	x	n[21 µM]	x	x	x
CC(C)NC(=O)c1cc(C2CCCCN2C(=O)c2ccc(Cl)cc2)on1 (configuration not stated)	n	x	x	x	n
Cn1nc(C(C)(C)C)cc1C(=O)N1CCCCC1c1cc(C(=O)Nc2ccc3c(c2)OCO3)no1 (configuration not stated)	18.4µM	x	x	x	4.61µM
Cn1nc(C(C)(C)C)cc1C(=O)N1CCCC(c2cc(C(=O)Nc3ccccc3Cl)no2)C1 (configuration not stated)	u	x	x	x	23.1µM
CC(C)NC(=O)c1cc(C2CCCCN2C(=O)c2cc(C(C)(C)C)nn2C)on1 (configuration not stated)	u	x	x	x	13µM
Cn1nc(C(C)(C)C)cc1C(=O)N1CCCC(c2cc(C(=O)NCc3ccccc3)no2)C1 (configuration not stated)	20.6µM	x	x	x	14.6µM
NS(=O)(=O)c1cc2c(cc1Cl)NC(c1ccccc1OCC(=O)O)NS2(=O)=O (configuration not stated)	n	n	n	n	u
SMILES	TDP1 cell CPT	TDP1 inh	uPA generation	miR-21 reporter	DT40 TDP1 no CPT
CCn1c(SCC(=O)Nc2cccc(OC)c2)nc2c(c1=O)SCC2	n	x	n	x	n
CCn1cc2nc(SCC(=O)Nc3ccccc3C(F)(F)F)n(Cc3ccc(C)cc3)c(=O)c2n1	16.4µM	u	x	n	18.4µM
CCn1cc2nc(SCC(=O)Nc3ccc(OC)c(OC)c3)n(Cc3ccc(OC)cc3)c(=O)c2n1	u	x	n	n	u
CCn1c(SCC(=O)Nc2cc(OC)ccc2OC)nc2c(c1=O)SCC2	u	n	n	n	25.9µM
CCn1cc2nc(SCC(=O)Nc3ccc(OC)cc3OC)n(Cc3ccc(OC)cc3)c(=O)c2n1	4.11µM	n[0.0935 µM]	n	n	2.59µM
CCn1cc2nc(SCC(=O)Nc3ccc(C)cc3)n(Cc3ccc(C)cc3)c(=O)c2n1	20.6µM	n	x	n	13µM
O=C(NC(=S)N1CCN(Cc2ccc3c(c2)OCO3)CC1)c1ccc(Cl)cc1	u	n	n	n	20.6µM
O=C(NC(=S)N1CCN(Cc2ccc3c(c2)OCO3)CC1)c1cccc(Br)c1	16.4µM	n	n	n	14.6µM
CCNC(=S)N1CCN(Cc2ccc3c(c2)OCO3)CC1	n	n	n	n	n
Cc1cc(Cl)ccc1NC(=S)N1CCN(Cc2ccc3c(c2)OCO3)CC1	u	n	n	n	u
Cc1ccc(OC(C)C(=O)N2CC(=O)Nc3ccccc32)c(C)c1 (configuration not stated)	n	x	n	n	n
COC(=O)c1c(NC2=NS(=O)(=O)c3ccccc32)sc2c1CCC(C(C)(C)C)C2 (configuration not stated)	18.4µM	x	n	x	14.6µM
CCOC(=O)c1c(NC2=NS(=O)(=O)c3ccccc32)sc2c1CCC(C)C2 (configuration not stated)	u	n	n	n	u
CCc1ccc(CNC(=O)Cn2nc(C)c3c(C)n(-c4ccc(C)cc4)nc3c2=O)cc1	u	n	x	n	u
Cc1nc(CS(=O)(=O)c2ccccc2)cc(N2CCOCC2)n1	9.2µM	n	n	n	9.2µM
Cn1c(=S)[nH]c2sc3c(c2c1=O)CCC(C(C)(C)C)C3 (configuration not stated)	x	x	x	n	x
Cn1cccc1C1NC(=O)c2c(sc3c2CCC(C(C)(C)C)C3)N1 (configuration not stated)	n	n	x	n	18.4µM
COc1cc([C@H]2c3cc4c(cc3[C@@H](O)[C@@H]3COC(=O)[C@H]23)OCO4)cc(OC)c1OC	x	n[21 µM]	x	x	x
COc1cc(C2c3cc4c(cc3CC3COC(=O)N32)OCO4)cc(OC)c1OC (configuration not stated)	0.82µM	x	n	x	0.92µM
